Some salts and complexes are drawn in separate pieces, as the source files them; their charges need not balance.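 Step 1: Grow cells in 96-well plates. Step 2: Expose to compound for 48 hours at 5 concentrations. Step 3: Interpolate endpoints linearly; if unreached, use highest concentration. GI50: concentration for 50% inhibition of growth. TGI is the concentration that stops growth completely.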
System: MDA-MB-468 breast
Experiment: growth of human tumour cells (NCI), 48 h

O=[N+]([O-])c1cc([N+](=O)[O-])c(O)c([N+](=O)[O-])c1.c1ccc([I+]c2ccccc2)cc1
GI50: 628 nM
TGI: > 100000 nM

Reference: PubChem BioAssay (NCI)
